Measured affinities in a library of Ab-14 heavy chain variants

Reference: Li et al. 2023, doi:10.1038/s41467-023-39022-2. File: FLAb, binding data.

Target: peptide PDVDLGDISGINAS, taken from heptad repeat 2 (HR2) of SARS-CoV-2 spike.

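The variants were designed computationally from a first round of random CDR variants and then made and measured. Their group label is 14H_En_Gibbs (En: ensemble of fine-tuned language models; Gibbs: Gibbs sampling). AlphaSeq pools MATa yeast showing the antibodies with MATalpha yeast showing the peptide. The frequency of each diploid, read from paired DNA barcodes, reflects how well the two displayed proteins bind. A regression on co-assayed BCL2-family reference pairs converts the normalised counts of each replicate to an apparent Kd. The assay was run in six technical replicates.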

Each scFv is VH, three GGGGS repeats, VL, as in the parent Ab-14, and differs from it in the CDRs of the heavy chain only.
VH: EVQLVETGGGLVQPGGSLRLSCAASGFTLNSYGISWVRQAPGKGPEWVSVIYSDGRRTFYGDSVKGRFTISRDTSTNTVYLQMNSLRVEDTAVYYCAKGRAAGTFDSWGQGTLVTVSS
VL: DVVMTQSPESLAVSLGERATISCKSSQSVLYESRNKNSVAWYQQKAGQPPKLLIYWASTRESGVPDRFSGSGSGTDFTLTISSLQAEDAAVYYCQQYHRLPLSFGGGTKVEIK

Each variant is given by its three heavy chain CDRs, as the data file delimits them; those of the parent are GFTLNSYGIS, VIYSDGRRTFYGDSVK, GRAAGTFDS. The read-out is the apparent dissociation constant on a log10 scale (nM): the lower, the stronger. A mean of the replicates is given; it leaves out those without a signal. A pair that was not seen in that replicate is written "nd"; this usually means weak binding, but a binder can also be missed. Values of this round are not directly comparable with the first-round values of the same sequences. As a blank, each scFv also met three strains without target: over all heavy chain designs, 1% of these pairings were detected, typically at 2.08 and seldom below 0.84. The control count says in how many pairings with the empty strains this scFv gave a signal. In the paper, a design with two or fewer of six values counts as a poor binder.

For GFNLNEFGIS / VIYADGHRQAYVSNVK / GHLGGHFDM, the assay gave nd, nd, nd, nd, nd, nd (controls 0 of 18).
For GPSLDEFGIS / VIYADGMRTAYTDSVK / GLFAATFVD, the assay gave nd, nd, nd, nd, nd, nd (controls 0 of 18).
For GEDLLEYGIS / VIYADGKRVAYTNAVK / GNEAGFFTL, the assay gave nd, nd, nd, nd, nd, 2.66 (controls 1 of 18).
For GNTLDEYGIS / VIYADGSRVAYADKFK / GMDVGTFDQ, the assay gave nd, nd, nd, nd, nd, nd (controls 0 of 18).
For EFDLMEYGVS / VIYADGHRTFYAEHVK / GTNSGVFDI, the assay gave nd, nd, nd, nd, nd, nd (controls 0 of 18).
For GFDLGEYGIS / VIYADGSRVSYAQKVK / GKNDAISSV, the assay gave nd, nd, nd, nd, nd, nd (controls 0 of 18).
For GFDLDEYGIS / VIYADGSRTAYSKNVK / GGFDDKVLV, the assay gave nd, nd, nd, nd, nd, nd (controls 0 of 18).
For GFNLNEYGIS / VIYADGMRTNYADKVK / GGLDVQEGY, the assay gave nd, nd, nd, nd, nd, nd (controls 1 of 18).
For GADIEEYGIS / VIYADGVRKYYVNSFK / GQMAGTFTG, the assay gave nd, nd, nd, nd, nd, nd (controls 0 of 18).
For GFDLNEYGVS / VIYADGFRTSYTDSVK / GNIVDLSMA, the assay gave nd, nd, nd, nd, nd, nd (controls 1 of 18).
For GFDIEEYGIS / VIYADGVRTMYADDVK / GNSKTYSLM, the assay gave nd, nd, nd, nd, nd, nd (controls 0 of 18).
For GFHLDEFGIS / VIYADGLRSSYADDAK / GENTGGFVV, the assay gave nd, nd, nd, nd, nd, nd (controls 0 of 18).
For GFDINEYGIS / VIYADGSRTAYSKNFK / GEDGIMLLF, the assay gave nd, nd, nd, nd, nd, nd (controls 0 of 18).
For GDDLQEYGIS / VIYADGLRTAYGNSVK / GGSNGLVTV, the assay gave nd, nd, nd, nd, nd, nd (controls 1 of 18).
For GFDLEEYGIS / VIYADGMRTTAIDKVK / GIAGGSFLV, the assay gave nd, nd, nd, nd, nd, nd (controls 0 of 18).
For GFDLEEQGIS / VIYADGSRKAYAQDVK / GGHAVGFHV, the assay gave nd, nd, nd, nd, nd, nd (controls 0 of 18).
For GEQLDEYGIS / VIYADGRRQYYANSVK / GDSADVFDL, the assay gave nd, nd, nd, nd, 4.36, nd (controls 1 of 18).
For GQLLDDYGIS / VIYADGLRKAYVDEVK / GNVAGTFDM, the assay gave -0.34, nd, -1.36, -0.77, -1.34, nd (mean -0.95; controls 0 of 18).
For GNNLEEYGIS / VIYADGMRTAAVDSVK / GDNSGTVVV, the assay gave nd, nd, nd, nd, nd, nd (controls 0 of 18).
For GFNLEDYGIS / VIYADGKRMSYQEAVK / GQNSGVIVN, the assay gave nd, nd, nd, nd, nd, nd (controls 0 of 18).
For GFDLKEYGIS / VIYADGRRTAYDNDVK / GQVLGIFLD, the assay gave nd, nd, nd, nd, nd, nd (controls 1 of 18).
For GFDLDQYGIS / VIYADGRRTAYANDVK / GKYAGSFLD, the assay gave 1.24, 1.59, 0.97, 0.80, 0.97, 1.03 (mean 1.10; controls 2 of 18).
For GFDLDEMGIS / VIYADGVRTAYIDQVK / GMKGDFMNT, the assay gave nd, nd, nd, nd, nd, nd (controls 0 of 18).
For KFDIEHYGIS / VIYADGKRTGYSNAVK / GWQGGTFNT, the assay gave 1.85, 1.66, 1.39, 1.69, 1.20, 1.98 (mean 1.63; controls 0 of 18).
For GFSLDEMGIS / VIYADGQRSFYQANVK / GVNSGTFFV, the assay gave nd, nd, nd, nd, nd, nd (controls 0 of 18).
For GDGLEEYGIS / VIYADGMRESYVDDVK / GQTGGTFNL, the assay gave nd, nd, nd, nd, nd, nd (controls 0 of 18).
For GFNLDEYGIS / VIYADGVRTQYAQSFK / GMNFGYIAG, the assay gave nd, nd, nd, nd, nd, nd (controls 0 of 18).
For GFGLGEYGIS / VIYADGHRTAYSTSVK / GTIGGTFFQ, the assay gave nd, nd, 2.14, nd, 2.61, nd (mean 2.37; controls 2 of 18).
For GQSLEEYGIS / VIYADGFRTQYKDSVK / GKNVFDITV, the assay gave nd, nd, nd, nd, nd, nd (controls 0 of 18).
For GFSLDEYGIS / VIYADGNRSAYIDAVK / GNYGSDFNE, the assay gave nd, nd, nd, nd, nd, nd (controls 0 of 18).
For GFTLDEYGIS / VIYADGVRNEYADNVK / GNKVLYNMD, the assay gave nd, nd, nd, nd, nd, nd (controls 0 of 18).
For GDGLSEYGIS / VIYADGFRTAYANDVK / GNAAFGFMV, the assay gave nd, nd, nd, nd, nd, nd (controls 0 of 18).
For GFNLDEYGIS / VIYADGRRTAYAESVK / NSNMSGMVT, the assay gave -0.98, -1.84, -0.42, -1.34, -1.39, -0.56 (mean -1.09; controls 0 of 18).
For GFDLEKYGIH / VIYADGIRASYSDAVK / GDLSGTLYV, the assay gave nd, nd, nd, nd, nd, nd (controls 2 of 18).
For GFDLGEYGVS / VIYADGKRTFYADHVK / GVNAGGFDT, the assay gave nd, nd, nd, nd, nd, nd (controls 0 of 18).
For GFNLEDYGIS / VIYADGHRASMVESVK / GHLAGTFDE, the assay gave 0.32, 0.35, 0.51, -0.06, 0.14, 0.51 (mean 0.30; controls 0 of 18).
For GKTLDEYGIS / VIYADGMRTQYIDQVK / GDIVGWNMT, the assay gave nd, nd, nd, nd, nd, nd (controls 0 of 18).

For reference, 3 entries of the list once more:

Variant GNNLEEYGIS / VIYADGMRTAAVDSVK / GDNSGTVVV gave nd, nd, nd, nd, nd, nd (controls 0 of 18).
Variant GFDLGEYGIS / VIYADGSRVSYAQKVK / GKNDAISSV gave nd, nd, nd, nd, nd, nd (controls 0 of 18).
Variant GKTLDEYGIS / VIYADGMRTQYIDQVK / GDIVGWNMT gave nd, nd, nd, nd, nd, nd (controls 0 of 18).